Values of other authors, collected in US20230041211A1, “DECREASING TOXICITY OF TERPENES AND INCREASING THE PRODUCTION POTENTIAL IN MICRO-ORGANISMS” (BASF SE, priority 2019, published 2023).

Details: Table 3B; cited from earlier work

Butanol
loqP: 0.88
